Values of other authors in patent US10689367B2, “Triazole pyridyl compounds as agonists of the APJ receptor” (AMGEN INC., priority 2016, dated 2020).

Conditions: in vivo; cited from earlier work

## Apelin-13
  plasma half-life: < 5 min
